Experimental data taken from US10681911B2, “Anthelminthic composition” (AgResearch Limited, priority 2016, dated 2020).

Format: physicochemical
In the case of ammonium nitrate [NH4NO3 1.75%], the “pH 0” value is reported as 6.6.
For ammonium nitrate [NH4NO3 3.5%], the “pH 0” value was 6.4.
With ammonium nitrate [NH4NO3 7%] the “pH 0” value was 6.3.
